The values below come from ChEMBL document CHEMBL1138542, “In-vitro regeneration of sarin inhibited electric eel acetylcholinesterase by bis-pyridinium oximes bearing xylene linker” (2009).

By UniProt entry, the sequences of proteins in these tests, tags left out. Where a name states a change or a piece, a line headed by the entry shows the natural chain unless it says otherwise.
UniProt O42275: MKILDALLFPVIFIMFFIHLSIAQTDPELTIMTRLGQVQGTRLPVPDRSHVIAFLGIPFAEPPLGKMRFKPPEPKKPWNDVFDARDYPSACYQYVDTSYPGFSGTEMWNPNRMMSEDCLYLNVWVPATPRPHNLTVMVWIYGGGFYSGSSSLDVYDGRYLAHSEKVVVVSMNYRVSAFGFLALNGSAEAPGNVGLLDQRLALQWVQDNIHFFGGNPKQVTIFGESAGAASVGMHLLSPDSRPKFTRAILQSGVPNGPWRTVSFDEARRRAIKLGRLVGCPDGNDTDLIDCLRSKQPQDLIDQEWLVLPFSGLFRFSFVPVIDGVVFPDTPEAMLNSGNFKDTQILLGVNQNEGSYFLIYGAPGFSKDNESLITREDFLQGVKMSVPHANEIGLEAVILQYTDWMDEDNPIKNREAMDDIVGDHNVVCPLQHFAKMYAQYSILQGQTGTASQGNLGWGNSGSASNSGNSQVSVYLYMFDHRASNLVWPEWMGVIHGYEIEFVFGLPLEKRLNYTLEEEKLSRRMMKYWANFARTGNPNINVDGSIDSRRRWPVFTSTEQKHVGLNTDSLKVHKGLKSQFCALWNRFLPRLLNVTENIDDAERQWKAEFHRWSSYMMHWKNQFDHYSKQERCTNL

Molecules are shown by their SMILES. Calls of active or inactive are those of the source. The calls are words filed in the database; no cut-off is given here.

Assay [1] concerns the target Acetylcholinesterase (Electrophorus electricus) (UniProt O42275). The assay can be described thus: Reactivation of sarin-inhibited electric eel AChE at 10 uM after 10 mins by Ellman's method relative to control. Further details: scale not given: the % may be the effect or the level left.
The target is the same in assay [2]. In words: Reactivation of sarin-inhibited electric eel AChE at 100 uM after 10 mins by Ellman's method relative to control. More on the design: scale not given: the % may be the effect or the level left. Background: DTNB colorimetry detects thiols as they appear.
Assay [3] has the same target. In words: Reactivation of sarin-inhibited electric eel AChE after 10 mins by Ellman's method relative to control.

With `O/N=C/c1ccc[n+](Cc2ccc(C[n+]3cccc(/C=N/O)c3)cc2)c1`, the Activity in assay [1] was 20%; in assay [2], 35%.

With `O/N=C/c1ccc[n+](Cc2cccc(C[n+]3cccc(/C=N/O)c3)c2)c1`, the Activity in assay [1] turned out to be 10%; in assay [2], 25%.

As to `O/N=C/c1ccc[n+](Cc2ccccc2C[n+]2cccc(/C=N/O)c2)c1`, the outcome in assay [1] was Active.

Turning to `O/N=C/c1cccc[n+]1Cc1ccc(C[n+]2ccccc2/C=N/O)cc1`, the result in assay [1] was Active.

As for `O/N=C/c1cccc[n+]1Cc1ccccc1C[n+]1ccccc1/C=N/O`, the outcome in assay [3] was Active.

With `O/N=C\c1cc[n+](Cc2ccccc2C[n+]2ccc(/C=N\O)cc2)cc1`, in assay [3], the outcome was inactive.
